# AlphaSeq binding of Ab-14 heavy chain variants to a spike HR2 peptide

Target: peptide PDVDLGDISGINAS, taken from heptad repeat 2 (HR2) of SARS-CoV-2 spike.

Each scFv is VH, three GGGGS repeats, VL, as in the parent Ab-14, and differs from it in the CDRs of the heavy chain only.
VH: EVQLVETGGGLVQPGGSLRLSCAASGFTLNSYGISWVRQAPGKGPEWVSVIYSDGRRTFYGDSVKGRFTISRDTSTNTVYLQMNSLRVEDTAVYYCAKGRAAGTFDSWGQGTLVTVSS
VL: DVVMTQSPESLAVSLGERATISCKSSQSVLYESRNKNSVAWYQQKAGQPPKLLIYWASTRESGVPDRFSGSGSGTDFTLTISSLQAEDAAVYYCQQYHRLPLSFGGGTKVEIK

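The parent was found by panning a naive human phage display library on the peptide. Variants in AAYL49 differ from the parent at up to three CDR positions; double and triple changes were sampled at random. In AlphaSeq, yeast of one mating type display the scFv and yeast of the other type display the target. Mating (16 h, 30 °C) was followed by selection of diploids and sequencing of their barcodes. Read counts were normalised to the haploid input and turned into Kd by a linear fit to BCL2-family pairs of known affinity, for each replicate. There are three technical replicates.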

Changes read parent residue, position, new residue, counted from the first residue of the VH shown.
All variants listed here change S53 of the VH, counted from its first residue.
Affinities are written as log10 Kd with Kd in nM; a lower number is a better binder.
Averages over replicates are reported, and they cover detected replicates only.
"ND" marks a missing value. The strain was present, yet no cells mated with the target were sequenced in that replicate, which points to weak or no binding.
As a blank, each scFv also met three strains without target: over library AAYL49, 15% of these pairings were detected, typically at 4.06 and seldom below 2.83. For each scFv, signals with the empty controls are counted beside the result.

- S35Y/S53D = 4.29, ND, ND (controls 2 of 9)
- S53D/G99P/A102I = ND, 3.81, ND (controls 1 of 9)
- L29C/S53K/G103S = ND, 4.13, ND (controls 1 of 9)
- S53Q/A101T/A102D = ND, ND, ND (controls 0 of 9)
- N30K/S53A/K65D = 0.10, 0.35, 0.16 (mean 0.20; controls 2 of 9)
- G26L/S53F/V64H = ND, ND, ND (controls 3 of 9)
- S53P/F59N = ND, ND, ND (controls 1 of 9)
- G26Q/S53P/G99Y = ND, ND, ND (controls 0 of 9)
- N30D/S53E/G55N = ND, ND, 4.40 (controls 1 of 9)
- S35A/S53C/D54F = ND, ND, ND (controls 2 of 9)
- S53P/D62N/T104Q = ND, ND, ND (controls 0 of 9)
- Y52G/S53R/A102T = ND, 3.73, 3.89 (mean 3.81; controls 4 of 9)
- Y32W/S53I/A101C = ND, 3.76, ND (controls 1 of 9)
- S53L/D62E/A102R = ND, ND, ND (controls 1 of 9)
- S53D/Y60F/V64Q = ND, ND, ND (controls 2 of 9)
- S35Y/S53W = ND, ND, ND (controls 0 of 9)
- S31C/S53Y/R100P = 2.78, 3.32, 3.30 (mean 3.13; controls 0 of 9)
- G26T/S35I/S53D = 4.51, ND, ND (controls 3 of 9)
- S31R/S53T/G61S = 1.68, 1.62, 1.99 (mean 1.77; controls 2 of 9)
- S53V/D106P/S107E = 4.54, 4.31, 3.84 (mean 4.23; controls 6 of 9)
- G26L/S53P/Y60Q = ND, ND, ND (controls 1 of 9)
- L29W/S53A/D62Q = 2.86, 2.76, ND (mean 2.81; controls 0 of 9)
- G26Q/S53M/Y60Q = 3.08, ND, ND (controls 1 of 9)
- I34Y/S53Q/G99C = 2.22, 2.16, 1.79 (mean 2.06; controls 2 of 9)
- G33E/S53I/R56W = ND, ND, ND (controls 1 of 9)
- T28V/S53G = ND, 2.62, 2.38 (mean 2.50; controls 0 of 9)
- S53C/G61H = ND, ND, ND (controls 0 of 9)
- N30Q/S53R/G99W = ND, ND, ND (controls 0 of 9)
- T28C/S53T/A102K = 5.25, 4.63, ND (mean 4.94; controls 3 of 9)
- S53C/D62Y = ND, ND, ND (controls 0 of 9)
- L29A/S53G/G61V = 2.86, 2.33, 2.89 (mean 2.69; controls 2 of 9)
- S53D/V64C = ND, ND, ND (controls 0 of 9)
- L29K/S53I/R57I = ND, ND, 5.97 (controls 3 of 9)
- S53G/R56W/A101V = 2.41, 2.71, 2.28 (mean 2.47; controls 2 of 9)
- N30P/I51S/S53C = 5.26, ND, ND (controls 1 of 9)
- L29D/S53I/D106E = ND, 3.66, ND (controls 1 of 9)
- G26N/S53E/V64T = ND, ND, ND (controls 0 of 9)
- S53H/T58Q/R100Q = 3.08, 3.24, 3.33 (mean 3.22; controls 4 of 9)

5 of these entries, quoted again:

{"changes": "S53D/Y60F/V64Q", "log10 Kd, replicates": "ND, ND, ND", "mean, log10 nM": "ND", "control signals": "2/9"}
{"changes": "N30K/S53A/K65D", "log10 Kd, replicates": "0.10, 0.35, 0.16", "mean, log10 nM": "0.20", "control signals": "2/9"}
{"changes": "N30Q/S53R/G99W", "log10 Kd, replicates": "ND, ND, ND", "mean, log10 nM": "ND", "control signals": "0/9"}
{"changes": "S53C/D62Y", "log10 Kd, replicates": "ND, ND, ND", "mean, log10 nM": "ND", "control signals": "0/9"}
{"changes": "N30P/I51S/S53C", "log10 Kd, replicates": "5.26, ND, ND", "mean, log10 nM": "5.26", "control signals": "1/9"}

Reference: Engelhart et al. 2022, doi:10.1038/s41597-022-01779-4. File: FLAb, binding data.